## AlphaSeq binding of Ab-14 light chain variants to a spike HR2 peptide

Target: peptide PDVDLGDISGINAS, taken from heptad repeat 2 (HR2) of SARS-CoV-2 spike.

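The starting antibody came from a phage panning campaign against this peptide. Library AAYL50 holds single substitutions and randomly drawn double and triple substitutions in the CDRs. The scFvs were displayed on barcoded MATa yeast, the peptide on MATalpha yeast. Mating (16 h, 30 °C) was followed by selection of diploids and sequencing of their barcodes. Each replicate has its own calibration line, from reference interactions of the BCL2 family. Each pool was mated in three replicate cultures.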

Parent scFv Ab-14: VH joined to VL by a (GGGGS)3 linker. Changes lie in the light chain CDRs alone.
VH: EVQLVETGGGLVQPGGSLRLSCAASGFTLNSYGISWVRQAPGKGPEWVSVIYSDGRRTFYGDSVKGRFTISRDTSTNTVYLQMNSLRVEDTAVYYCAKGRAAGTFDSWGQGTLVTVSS
VL: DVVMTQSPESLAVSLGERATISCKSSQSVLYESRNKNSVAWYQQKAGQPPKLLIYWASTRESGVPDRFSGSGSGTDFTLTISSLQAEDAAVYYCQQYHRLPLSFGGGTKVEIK

Substitutions are numbered in sequence along the VL above, starting at 1 (not Kabat).
All variants listed here change E32 of the VL, counted from its first residue.
Kd is apparent (estimated from mating counts) and averaged on the log scale over replicates with a signal. Smaller is tighter.
A pair that was not seen in any replicate is written "nd"; this usually means weak binding, but a binder can also be missed.
Nonspecific signal, from three strains lacking the peptide, appeared in 18% of pairings of library AAYL50, centred on 15 µM (5% of these signals below 970 nM); values are not corrected for it. For each scFv, signals with the empty controls are counted beside the result.
In this assay the parent's reference entry averaged 4.4 nM; its copy inside this library read 48 nM.

E32Y R34F L102D: nd (0 of 3 replicates; controls 0 of 9).
S28W E32Y L100H: nd (0 of 3 replicates; controls 0 of 9).
E32H T59P L100F: 69 µM (2 of 3 replicates; controls 2 of 9).
E32I S38Q R99N: nd (0 of 3 replicates; controls 0 of 9).
S25I E32D P101S: 6.8 µM (1 of 3 replicates; controls 0 of 9).
V29T E32R: nd (0 of 3 replicates; controls 1 of 9).
S26W E32N S38F: 170 µM (2 of 3 replicates; controls 3 of 9).
E32L T59H Q96A: 12 µM (1 of 3 replicates; controls 1 of 9).
S28P E32I A57S: 380 nM (1 of 3 replicates; controls 0 of 9).
E32M S38T V39N: 71 µM (2 of 3 replicates; controls 1 of 9).
E32Y Q95K L100G: 200 nM (3 of 3 replicates; controls 2 of 9).
S26E V29E E32F: 5.5 nM (3 of 3 replicates; controls 0 of 9).
E32P A40Y R99A: 39 µM (2 of 3 replicates; controls 2 of 9).
V29N E32C Q96L: 6.4 µM (3 of 3 replicates; controls 4 of 9).
E32N N37A: 530 nM (1 of 3 replicates; controls 0 of 9).
E32T A40E L102H: 12 µM (1 of 3 replicates; controls 3 of 9).
E32A A40R R99M: nd (0 of 3 replicates; controls 0 of 9).
S25T E32V V39N: nd (0 of 3 replicates; controls 1 of 9).
L30H E32W A57V: 290 nM (3 of 3 replicates; controls 0 of 9).
E32C E61N P101E: 350 µM (2 of 3 replicates; controls 2 of 9).
E32G A40D S103W: nd (0 of 3 replicates; controls 1 of 9).
V29F E32Y T59A: 4.9 µM (2 of 3 replicates; controls 0 of 9).
Y31C E32M Q96K: 160 nM (3 of 3 replicates; controls 0 of 9).
E32T Q95F H98C: 130 µM (1 of 3 replicates; controls 4 of 9).
K24I S25Q E32W: 390 nM (3 of 3 replicates; controls 5 of 9).
S28C E32A S38C: nd (0 of 3 replicates; controls 1 of 9).
E32T E61N S62M: 94 nM (3 of 3 replicates; controls 2 of 9).
E32S A57Q L102P: 27 µM (3 of 3 replicates; controls 6 of 9).
S28P E32L: nd (0 of 3 replicates; controls 2 of 9).
E32R N35T: 8.2 µM (2 of 3 replicates; controls 0 of 9).
Q27T E32G V39A: nd (0 of 3 replicates; controls 0 of 9).
E32I S103K: nd (0 of 3 replicates; controls 0 of 9).
K24N S28M E32A: 560 nM (3 of 3 replicates; controls 4 of 9).
E32P Q96F Y97G: nd (0 of 3 replicates; controls 0 of 9).
Q27R E32D S62T: 7.2 nM (3 of 3 replicates; controls 0 of 9).
L30N E32S Q95S: 900 nM (3 of 3 replicates; controls 4 of 9).
E32P T59K: 68 nM (3 of 3 replicates; controls 2 of 9).
S25E E32Q R60A: nd (0 of 3 replicates; controls 0 of 9).
K24E E32I: 17 nM (3 of 3 replicates; controls 3 of 9).
S28C E32Q: 500 nM (3 of 3 replicates; controls 3 of 9).
K24W E32V: nd (0 of 3 replicates; controls 1 of 9).
E32S L100R: nd (0 of 3 replicates; controls 0 of 9).
E32S A40Y: 2.9 µM (1 of 3 replicates; controls 1 of 9).
E32Y A40N P101T: 41 µM (2 of 3 replicates; controls 2 of 9).
E32I R34D V39L: 17 nM (3 of 3 replicates; controls 0 of 9).
E32R H98N R99H: 140 nM (3 of 3 replicates; controls 1 of 9).
Y31K E32M K36T: 220 nM (3 of 3 replicates; controls 2 of 9).
S28D E32W Q95Y: nd (0 of 3 replicates; controls 0 of 9).
E32I Q96F: 650 nM (2 of 3 replicates; controls 0 of 9).
S28Q E32M P101G: 200 nM (3 of 3 replicates; controls 4 of 9).
E32S S38Y V39F: nd (0 of 3 replicates; controls 1 of 9).

From the list, the first 4 with no signal in any replicate:

E32Y R34F L102D: nd (0 of 3 replicates; controls 0 of 9).
S28W E32Y L100H: nd (0 of 3 replicates; controls 0 of 9).
E32I S38Q R99N: nd (0 of 3 replicates; controls 0 of 9).
V29T E32R: nd (0 of 3 replicates; controls 1 of 9).

Reference: Engelhart et al. 2022, doi:10.1038/s41597-022-01779-4. File: FLAb, binding data.